By UniProt entry, the sequences of proteins in these tests, tags left out.
UniProt Q15858, whole entry: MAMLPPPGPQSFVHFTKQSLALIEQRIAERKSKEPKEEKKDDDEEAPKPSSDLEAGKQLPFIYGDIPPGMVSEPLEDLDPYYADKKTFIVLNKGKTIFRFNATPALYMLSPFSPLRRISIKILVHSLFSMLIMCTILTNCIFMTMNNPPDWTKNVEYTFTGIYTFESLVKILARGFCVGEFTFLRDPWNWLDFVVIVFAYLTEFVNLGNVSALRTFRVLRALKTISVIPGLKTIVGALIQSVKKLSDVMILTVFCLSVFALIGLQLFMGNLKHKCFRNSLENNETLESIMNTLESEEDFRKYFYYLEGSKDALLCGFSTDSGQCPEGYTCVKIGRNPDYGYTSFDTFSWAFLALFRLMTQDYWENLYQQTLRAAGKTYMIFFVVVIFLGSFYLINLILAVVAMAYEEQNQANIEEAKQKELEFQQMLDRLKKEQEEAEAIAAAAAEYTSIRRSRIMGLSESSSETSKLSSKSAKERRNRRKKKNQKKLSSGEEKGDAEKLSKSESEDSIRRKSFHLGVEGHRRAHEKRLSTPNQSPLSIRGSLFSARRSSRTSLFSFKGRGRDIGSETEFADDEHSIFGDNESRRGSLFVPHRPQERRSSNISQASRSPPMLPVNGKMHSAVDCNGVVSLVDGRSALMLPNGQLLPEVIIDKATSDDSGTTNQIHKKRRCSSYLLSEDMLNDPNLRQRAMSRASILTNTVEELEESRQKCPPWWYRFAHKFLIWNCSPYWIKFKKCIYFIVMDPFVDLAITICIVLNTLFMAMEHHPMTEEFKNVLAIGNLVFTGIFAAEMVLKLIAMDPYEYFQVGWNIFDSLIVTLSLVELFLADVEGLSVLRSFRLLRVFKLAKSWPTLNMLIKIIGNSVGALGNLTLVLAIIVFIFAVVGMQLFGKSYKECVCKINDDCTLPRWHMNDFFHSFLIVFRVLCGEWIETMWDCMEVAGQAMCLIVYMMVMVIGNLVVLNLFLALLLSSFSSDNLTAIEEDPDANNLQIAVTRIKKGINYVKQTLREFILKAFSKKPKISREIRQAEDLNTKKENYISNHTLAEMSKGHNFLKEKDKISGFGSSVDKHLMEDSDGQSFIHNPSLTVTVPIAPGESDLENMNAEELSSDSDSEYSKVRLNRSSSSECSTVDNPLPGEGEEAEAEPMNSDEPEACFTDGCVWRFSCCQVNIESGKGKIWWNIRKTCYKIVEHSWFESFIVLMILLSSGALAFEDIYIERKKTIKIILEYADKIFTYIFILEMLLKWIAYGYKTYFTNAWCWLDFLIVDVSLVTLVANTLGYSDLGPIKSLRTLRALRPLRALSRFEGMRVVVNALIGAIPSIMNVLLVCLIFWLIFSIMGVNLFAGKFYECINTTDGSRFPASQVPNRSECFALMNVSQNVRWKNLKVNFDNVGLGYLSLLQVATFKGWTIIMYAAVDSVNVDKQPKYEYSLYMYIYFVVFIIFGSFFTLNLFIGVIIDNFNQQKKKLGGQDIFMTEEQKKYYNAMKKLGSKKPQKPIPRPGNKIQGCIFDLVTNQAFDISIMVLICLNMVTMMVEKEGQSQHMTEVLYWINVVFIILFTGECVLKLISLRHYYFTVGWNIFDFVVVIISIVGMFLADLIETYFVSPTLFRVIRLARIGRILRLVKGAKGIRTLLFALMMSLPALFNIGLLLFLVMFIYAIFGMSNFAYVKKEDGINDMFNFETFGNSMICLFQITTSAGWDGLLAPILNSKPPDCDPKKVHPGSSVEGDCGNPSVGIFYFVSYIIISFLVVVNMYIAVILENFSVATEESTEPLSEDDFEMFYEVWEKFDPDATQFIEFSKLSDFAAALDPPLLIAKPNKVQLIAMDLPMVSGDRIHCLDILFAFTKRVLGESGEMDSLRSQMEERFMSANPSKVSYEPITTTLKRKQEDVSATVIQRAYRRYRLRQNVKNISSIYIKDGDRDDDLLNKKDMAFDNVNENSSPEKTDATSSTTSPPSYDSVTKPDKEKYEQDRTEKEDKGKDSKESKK

In patent US9776995B2, “Bicyclic sulfonamide compounds as sodium channel inhibitors” (AMGEN INC., priority 2013, dated 2017):

Columns and labels:
Nav 1.7 [1] = target: T1, Nav 1.7 (Homo sapiens (Human), UniProt Q15858); experiment: in-vitro Nav 1.7 PX data; type: cell-based; details: PatchXpress (PX)
Nav 1.7 [2] = target: T1, Nav 1.7; experiment: Nav 1.7 in vitro PX assay (PatchXpress whole cell voltage clamp); type: cell-based; details: HEK 293 cells stably transfected with human Nav1.7, partially inactivated state;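 also: holding potential set for 20 to 50% inactivation, sodium current evoked by a 20 ms step to −10 mV, peak current inhibition read after compound exposure, 3–5 cells per concentration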

Row | IC50 (Nav 1.7 [1]) [nM] | SMILES | IC50 (Nav 1.7 [2]) [nM]
1 | 236 | COc1cc(-c2cc(F)cnc2OC)c(C#N)cc1-c1nccc2cc(S(=O)(=O)Nc3ccon3)ccc12 [Example 83, 1-(5-cyano-4-(5-fluoro-2-methoxy-3-pyridinyl)-2-methoxyphenyl)-N-3-isoxazolyl-6-isoquinolinesulfonamide] | 
2 |  | COc1cc(-c2cc(F)cc(F)c2)c(Cl)cc1-c1nccc2cc(S(=O)(=O)Nc3nncs3)ccc12 [Example 380, 1-(2-chloro-3′,5′-difluoro-5-methoxy-4-biphenylyl)-N-1,3,4-thiadiazol-2-yl-6-isoquinolinesulfonamide] | 19
3 |  | COc1cc(-c2cccc(F)c2)c(Cl)cc1-c1nc(C#N)cc2cc(S(=O)(=O)Nc3ccon3)ccc12 [Example 400, 1-(2-CHLORO-3′-FLUORO-5-METHOXY-4-BIPHENYLYL)-3-CYANO-N-3-ISOXAZOLYL-6-ISOQUINOLINESULFONAMIDE] | 128
